Molecular target: human FSH receptor (Homo sapiens, UniProt P23945)
Test: hFSHR CHO cAMP assay (rhFSHR-cLUC cells, FSH-stimulated cAMP, radioimmunoassay)
Details: read-out: EC50 hFSHR CHO cAMP; inhibition of cAMP produced by EC70 dose of FSH (4.85 nM); maximum concentration 50 μM
Source text: Minimum Essential Medium-Alpha (MEM-alpha), fetal bovine serum (FBS), penicillin, streptomycin, geneticin, trypsin-EDTA, Hanks' Balanced Salt Solution (no Calcium chloride, Magnesium chloride, Magnesium sulfate, or phenol red; Ca-Mg free HBSS) were purchased from Gibco BRL (Gaithersburg, Md.). The cells used for the FSH bioassay (rhFSHR-cLUC) were Chinese Hamster Ovary cells (K-1; ATCC) stably transformed with human FSH receptor (pSVK-FSHr) and a cAMP luciferase reporter gene (responsive CGα-180LUC). Follicle Stimulating Hormone (Metrodin; Fertinex) was purchased from Serono, Ltd. (Norwell, Mass.). […]
Forty-eight hours after the cells were plated in sterile 96-well culture plates (Corning, Corning, N.Y.) the spent media was removed and 50 μl assay media (modified growth media with 2% HIFBS) containing 2 mM IBMX (3-isobutyl-1-methyl-xanthine) was added to the cells. […] The amount of cAMP produced was measured by radioimmunoassay in a FlashPlate (DuPont, Boston, Mass.). […] The FlashPlates were sealed, incubated overnight @ room temperature, and counted in a Packard TopCount (Packard Instrument Co., Meriden, Conn.). The cAMP radioimmunoassay results were calculated using DPM conversion and log-logit transformation of % binding (Excel program). […]
EC50 values were calculated from an analysis of the concentration-inhibition data using a linear analysis of the data transformed to a log-logit format.

Sequences of proteins named here, by UniProt entry; tags and fusion partners are left off. Residues count along the entry.
UniProt P23945, 18-695 limits assumed: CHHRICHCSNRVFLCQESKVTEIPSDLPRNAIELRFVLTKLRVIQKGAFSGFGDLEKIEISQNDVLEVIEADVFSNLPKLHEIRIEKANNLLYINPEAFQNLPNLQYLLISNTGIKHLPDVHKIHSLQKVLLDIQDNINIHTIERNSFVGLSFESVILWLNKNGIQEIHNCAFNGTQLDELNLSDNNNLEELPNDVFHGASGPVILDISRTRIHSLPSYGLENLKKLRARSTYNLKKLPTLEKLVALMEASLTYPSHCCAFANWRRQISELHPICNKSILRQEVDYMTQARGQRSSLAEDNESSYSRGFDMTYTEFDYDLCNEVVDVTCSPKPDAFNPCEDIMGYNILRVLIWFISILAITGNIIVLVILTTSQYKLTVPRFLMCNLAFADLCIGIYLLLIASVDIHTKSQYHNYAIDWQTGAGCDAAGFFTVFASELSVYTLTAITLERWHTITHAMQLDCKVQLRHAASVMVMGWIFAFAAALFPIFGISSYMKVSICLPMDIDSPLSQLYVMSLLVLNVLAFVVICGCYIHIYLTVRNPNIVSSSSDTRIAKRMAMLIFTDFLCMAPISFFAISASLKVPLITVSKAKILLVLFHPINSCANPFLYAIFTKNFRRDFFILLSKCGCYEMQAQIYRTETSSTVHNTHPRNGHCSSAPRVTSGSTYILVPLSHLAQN

- EC50: > 50 µM
Structure (SMILES): C[C@@H](CN(CC(=O)NCc1ccc(CN)cc1)S(=O)(=O)c1ccc(-c2cccc3c2sc2ccccc23)cc1)c1ccccc1
